One experiment is filed under the species Homo sapiens. The experiment can be described thus: Inhibition of glutathione peroxidase (unknown origin) at 10 uM.
Experiment [1] relates to HEK293. The experiment can be described thus: Cytotoxicity against HEK cells expressing IRES at 2 to 5 uM after 48 hrs by MTT assay. The note with it: Homo sapiens. A general note: Tetrazolium dyes change colour on reduction, which living cells bring about.
Experiment [2] has as its system HEK293. The experiment can be described thus: Cytotoxicity against HEK cells expressing TrxR1 at 2 to 5 uM after 48 hrs by MTT assay. The note with it: Homo sapiens.
Experiment [3] concerns HL-60. The experiment is described as follows: Reduction in cellular thiols in human HL60 cells at 2 to 10 uM after 12 to 24 hrs by DTNB titration.
Experiment [4] deals with HL-60. The experiment can be described thus: Induction of apoptosis in human HL60 cells at 0.5 to 5 uM by annexin V-FITC/propidium iodide staining.
The test system of experiment [5] is HeLa. The experiment is described as follows: Cytotoxicity against human HeLa cells transfected with shTrxR1 RNA at 2 to 5 uM after 48 hrs by MTT assay.
Experiment [6] concerns HL-60. The experiment can be described thus: Induction of apoptosis in human HL60 cells after 12 to 24 hrs by annexin V-FITC/propidium iodide staining.
For experiment [7], the system named is HeLa. The experiment is described as follows: Induction of TrxR protein expression in human HeLa cells at 2 uM after 12 hrs by Western blotting analysis. For orientation: A western blot detects proteins with antibodies after separation by electrophoresis.
The test system of experiment [8] is HeLa. The experiment can be described thus: Induction of TrxR protein expression in human HeLa cells at 1 uM after 24 hrs by Western blotting analysis.
For experiment [9], the system named is HL-60. The experiment can be described thus: Reduction in cellular GSH in human HL60 cells assessed as intracellular GSH at 100 uM after 24 hrs relative to control. Further details: scale not given: the % may be the effect or the level left.
The species entered for another experiment is Rattus norvegicus. The experiment can be described thus: Inhibition of NADPH-reduced rat recombinant wild type TrxR at 40 nM after 30 mins by DTNB assay in presence of 1 mM GSH.
Experiment [10] deals with T1, Thioredoxin reductase (Homo sapiens) (UniProt Q16881+Q9NNW7+Q86VQ6). The experiment is described as follows: Binding affinity to TrxR activity in human HeLa cell lysate after 30 mins incubation by pulldown/Western blotting analysis.
For experiment [11], the target named is T1, Thioredoxin reductase (Homo sapiens). The experiment is described as follows: Inhibition of human TrxR activity in living human HeLa cells after 4 hrs by TRFS-green based fluorescence microscopy imaging.
Experiment [12] relates to HL-60. The experiment is described as follows: Induction of apoptosis in human HL60 cells assessed as increase in caspase 3 activity at 0.5 to 2 uM after 24 hrs by colorimetric assay.
Experiment [13] relates to HL-60. The experiment can be described thus: Induction of ROS production in human HL60 cells at 1 uM for 30 mins incubation with 10 uM DCFH-DA after 1 to 2 hrs by fluorescence microscopy.
In experiment [14] the test system is HL-60. The experiment is described as follows: Induction of apoptosis in human HL60 cells assessed as condensed and highly fluorescent nuclei at 0.5 to 2 uM after 24 hrs by Hoechst 33342 staining-based fluorescence microscopy.
The test system of experiment [15] is HL-60. The experiment can be described thus: Induction of ROS production in human HL60 cells assessed as relative fluorescence intensity at 1 uM for 30 mins incubation with 10 uM DCFH-DA after 1 to 2 hrs by fluorescence microscopy.

Protein sequences, listed by entry. Tags and fused reporters are not part of them.
UniProt Q16881, whole entry, looked up: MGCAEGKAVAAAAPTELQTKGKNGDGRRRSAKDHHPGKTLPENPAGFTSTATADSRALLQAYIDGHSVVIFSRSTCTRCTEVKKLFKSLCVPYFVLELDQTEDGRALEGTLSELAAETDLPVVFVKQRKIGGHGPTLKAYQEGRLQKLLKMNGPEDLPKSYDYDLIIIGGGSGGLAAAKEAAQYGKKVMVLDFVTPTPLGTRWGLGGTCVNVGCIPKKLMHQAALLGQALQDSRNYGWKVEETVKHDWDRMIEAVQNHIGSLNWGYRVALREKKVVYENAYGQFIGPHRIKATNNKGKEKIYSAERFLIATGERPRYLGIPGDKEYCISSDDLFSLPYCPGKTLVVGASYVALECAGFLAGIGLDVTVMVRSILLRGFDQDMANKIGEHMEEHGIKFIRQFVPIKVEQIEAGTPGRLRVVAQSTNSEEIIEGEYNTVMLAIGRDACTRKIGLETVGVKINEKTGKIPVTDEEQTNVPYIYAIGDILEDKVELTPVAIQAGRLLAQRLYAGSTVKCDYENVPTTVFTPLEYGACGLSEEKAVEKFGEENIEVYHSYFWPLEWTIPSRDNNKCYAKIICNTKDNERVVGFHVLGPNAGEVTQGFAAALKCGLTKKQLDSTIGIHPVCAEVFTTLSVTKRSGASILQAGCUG
UniProt Q9NNW7, whole entry, looked up: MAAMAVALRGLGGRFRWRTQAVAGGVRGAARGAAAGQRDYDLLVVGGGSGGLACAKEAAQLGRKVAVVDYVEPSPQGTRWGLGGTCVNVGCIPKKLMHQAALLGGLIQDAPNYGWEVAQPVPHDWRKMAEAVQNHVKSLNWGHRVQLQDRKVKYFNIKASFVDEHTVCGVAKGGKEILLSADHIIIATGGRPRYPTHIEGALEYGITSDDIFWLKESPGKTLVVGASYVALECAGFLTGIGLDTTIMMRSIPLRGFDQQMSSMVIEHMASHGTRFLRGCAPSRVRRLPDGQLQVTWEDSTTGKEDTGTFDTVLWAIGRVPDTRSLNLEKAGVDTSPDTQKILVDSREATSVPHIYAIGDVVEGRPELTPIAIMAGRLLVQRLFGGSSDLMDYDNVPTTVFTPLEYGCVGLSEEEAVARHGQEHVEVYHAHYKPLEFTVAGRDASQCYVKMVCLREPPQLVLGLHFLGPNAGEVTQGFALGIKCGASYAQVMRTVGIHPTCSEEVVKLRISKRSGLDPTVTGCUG
UniProt Q86VQ6, whole entry, looked up: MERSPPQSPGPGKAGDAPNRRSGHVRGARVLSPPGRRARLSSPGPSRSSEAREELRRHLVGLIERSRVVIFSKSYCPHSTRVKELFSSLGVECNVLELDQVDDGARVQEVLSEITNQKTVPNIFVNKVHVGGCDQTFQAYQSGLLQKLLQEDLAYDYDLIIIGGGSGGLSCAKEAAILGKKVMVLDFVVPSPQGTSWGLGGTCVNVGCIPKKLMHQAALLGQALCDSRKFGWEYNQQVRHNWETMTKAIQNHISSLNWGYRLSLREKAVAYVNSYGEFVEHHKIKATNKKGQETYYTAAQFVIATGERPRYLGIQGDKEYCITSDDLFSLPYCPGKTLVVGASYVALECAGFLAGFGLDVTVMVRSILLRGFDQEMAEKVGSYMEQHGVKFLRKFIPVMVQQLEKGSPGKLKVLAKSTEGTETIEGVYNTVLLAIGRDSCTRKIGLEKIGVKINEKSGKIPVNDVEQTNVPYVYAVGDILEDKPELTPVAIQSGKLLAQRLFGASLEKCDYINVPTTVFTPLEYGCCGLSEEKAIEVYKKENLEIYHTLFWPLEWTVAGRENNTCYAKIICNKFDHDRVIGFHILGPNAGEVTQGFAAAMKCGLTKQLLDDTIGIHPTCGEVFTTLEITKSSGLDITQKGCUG

Active and inactive are the calls of the source. No cut-off for these calls is given here.

For the compound `Nc1ccc([As]2SCCCS2)cc1`, in the experiment listed under Homo sapiens, the inhibition entry is “inactive”. The result (in the experiment on HEK293 [1]; in the experiment with HEK293 [2]; in the experiment on HeLa [5]; with HeLa [7]; in the experiment with HeLa [8]; in experiment [10]) was Active. Besides, the result in the experiment with HL-60 [12], with HL-60 [13], with HL-60 [14] and in the experiment with HL-60 [15] was Active. Moreover, the inhibition result (in the experiment with HL-60 [3]; in the experiment filed under Rattus norvegicus; in experiment [11]) was “Active” throughout. Also, the figures for the Activity result with HL-60 [4], in the experiment with HL-60 [6] and with HL-60 [9] were “tde”, “Dose-dependent effect” and below 20%, respectively.
